The values below come from US8906904B2, “Alkoxy pyrazoles as soluble guanylate cyclase activators” (Boehringer Ingelheim International GmbH, priority 2012, dated 2014).

Sequences of proteins named here, by UniProt entry; tags and fusion partners are left off.
UniProt Q02108, whole entry: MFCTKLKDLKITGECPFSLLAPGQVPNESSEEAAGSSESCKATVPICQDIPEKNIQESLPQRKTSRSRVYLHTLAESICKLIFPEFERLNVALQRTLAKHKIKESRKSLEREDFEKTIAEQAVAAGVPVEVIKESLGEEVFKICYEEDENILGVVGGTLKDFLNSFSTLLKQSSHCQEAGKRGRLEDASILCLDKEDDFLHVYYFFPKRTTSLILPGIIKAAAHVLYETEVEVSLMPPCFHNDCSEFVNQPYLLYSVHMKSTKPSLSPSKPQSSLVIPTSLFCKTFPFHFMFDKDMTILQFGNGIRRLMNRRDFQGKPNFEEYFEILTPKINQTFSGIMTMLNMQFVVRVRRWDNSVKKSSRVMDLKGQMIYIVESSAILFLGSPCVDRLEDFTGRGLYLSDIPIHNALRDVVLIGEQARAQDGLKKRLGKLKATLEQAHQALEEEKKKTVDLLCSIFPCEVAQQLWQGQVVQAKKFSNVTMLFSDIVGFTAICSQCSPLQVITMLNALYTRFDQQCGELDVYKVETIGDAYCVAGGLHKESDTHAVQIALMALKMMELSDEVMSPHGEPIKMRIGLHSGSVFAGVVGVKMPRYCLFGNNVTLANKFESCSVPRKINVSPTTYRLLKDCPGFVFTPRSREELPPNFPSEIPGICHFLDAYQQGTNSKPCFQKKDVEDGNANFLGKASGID
UniProt Q02153, whole entry: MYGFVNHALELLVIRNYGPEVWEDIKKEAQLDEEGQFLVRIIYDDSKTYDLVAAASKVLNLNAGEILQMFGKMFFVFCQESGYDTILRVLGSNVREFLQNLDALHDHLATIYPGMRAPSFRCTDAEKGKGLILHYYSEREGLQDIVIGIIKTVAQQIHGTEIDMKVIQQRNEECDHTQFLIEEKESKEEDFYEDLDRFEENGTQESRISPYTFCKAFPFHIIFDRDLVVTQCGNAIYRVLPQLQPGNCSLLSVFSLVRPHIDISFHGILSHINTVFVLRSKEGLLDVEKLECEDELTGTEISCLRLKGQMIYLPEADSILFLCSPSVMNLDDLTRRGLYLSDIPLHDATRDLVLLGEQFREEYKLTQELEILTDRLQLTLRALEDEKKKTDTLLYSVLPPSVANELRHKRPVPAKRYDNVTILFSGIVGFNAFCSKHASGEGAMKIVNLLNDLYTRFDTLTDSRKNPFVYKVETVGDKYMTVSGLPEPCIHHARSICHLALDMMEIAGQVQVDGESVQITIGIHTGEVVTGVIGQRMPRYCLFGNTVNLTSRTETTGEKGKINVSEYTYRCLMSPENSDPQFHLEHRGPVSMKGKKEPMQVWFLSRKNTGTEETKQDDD

Data set [1] has as its target human soluble guanylate cyclase alpha 1 and beta 1 subunits (sGC) (Homo sapiens, UniProt Q02108+Q02153). Kind of data set: sGC cellular activator assay (cGMP, HTRF). Particulars: CHO cells stably expressing human sGC alpha 1/beta 1, preincubated with 40 microM ODQ; cGMP readout; assay run with and without 50% human serum, Table 2 does not say which. The protocol:
The sGC cellular activator assay is performed in the presence and absence of 50% human serum (HS) using Chinese hamster ovary cells that have been stably transfected to express the human soluble guanylate cyclase alpha 1 and beta 1 subunits (sGC). Cells are preincubated with 40 microM 1H-[1,2,4]oxadiazolo[4,3-a]quinoxalin-1-one (ODQ), an sGC inhibitor, for one h in buffer containing 0.1% bovine serum albumin and 3-isobutyl-1-methylxanthine (IBMX). Concentration response curves are prepared for test compounds in DMSO. An intermediate dilution of the compounds is performed in either buffer containing IBMX or type AB HS containing IBMX. Diluted compounds are added to cells and they are incubated at room temperature for thirty min. cGMP is measured using a CisBio homogeneous time resolved fluorescence kit and the EC50 is calculated for each compound.
Representative compounds of the present invention were tested for activity the above assay. Preferred compounds have an EC50 of <1,000 nM in the above assay and more preferred compounds have an EC50<200 nM.

Data set [2] is described as follows: human liver microsome (HLM) metabolic stability assay. Particulars: human liver microsomes; % hepatic blood flow calculated from t1/2. On the procedure:
The 5 time point, high-throughput human liver microsome (HLM) metabolic stability assay is designed to determine in vitro compound metabolism. Compounds are incubated with HLMs at a concentration of 1 uM, at 37° C., for a total of 60 min. The percent of compound remaining at 5, 15, 30, and 60 min is used to calculate the t½ (min), CLint (mL/min/kg), CLh (mL/min/kg), and % Qh. The assay is based on a 96-well format and can accommodate up to 92 compounds per plate (n=1).
Using the 96-well multi-channel head, the Biomek FX, equipped with a Peltier heating block/shaker, is programmed to accomplish the following steps: • 1. Pipette 175 uL of 1.15 mg/mL microsomes into each of the 96 conical inserts (Analytical Sales and Products, catalog number 96PL05) that fit into the plate of the Peltier heating block/shaker (the incubation plate) • 2. Add 5 uL of compounds from the assay plate to the microsomes and shake the mixture at 600 rpm at 42.1° C. for 10 min (a setting of 42.1° C. on the Peltier is required for the samples to incubate at 37° C.) • 3. After 10 min, prompt the user to add the NADPH plate to the deck and add 20 uL from the NADPH plate to the incubation plate to start the reaction • 4. Add 215 uL of 100%, cold acetonitrile containing an internal standard(s) to a 0 minute, 5 minute, 15 minute, 30 minute, and 60 minute “quench” plate • 5. At 0 min, 5 min, 15 min, 30 min, and 60 min into the incubation, aspirate 12 uL from the incubation mixture and add it to the quench solution to stop the reaction • 6. Add 185 uL HPLC grade water to each well of the 0, 5, 15, 30 and 60 minute quench plates to dilute compounds to the appropriate concentration for the mass spectrometer
After all time points are collected, the quench plates are sealed with 96-well pierceable plate mats or heat sealing foil and centrifuged at 3000 rpm for 15 min to pellet the microsomes.
The plates are analyzed using LC/MS/MS with electron spray ionization (ESI) and the previously determined MRM transitions. The LC method includes the following parameters:
Using an Excel template in Activitybase, the peak areas corresponding to 5, 15, 30 and 60 min are compared to the peak area at 0 min to calculate the percent of remaining compound using the following equation: Percent compound remaining=(AUC at Time t min/AUC at Time 0 min)×100 where t=0, 5, 15, 30 or 60 min.
Time (min) is plotted against the natural logarithm (Ln) of the percent compound remaining to determine the slope. The slope is used to calculate t½ (min) using the equation, t½=0.693/slope.
Clint, Intrinsic Clearance 0.693/t½*Avg liver wt in g/avg body wt in kg*f(u)/protein concentration in incubation in mg/mL*mg microsomal protein/g liver 0.693/t½*26 g/kg*1/1.0 mg/mL*45 mg/g Clh, Hepatic Clearance Hepatic flow*f(u)*Clint/(hepatic flow+f(u)*Clint) Qh, % Hepatic Blood Flow (Clh/Hepatic flow)*100
Preferred compounds have % Qh values of less than 24.

The conditions of data set [3]: room temperature, 2.5% DMSO; for Solubility (pH 2.2): McIlvaine buffer pH 2.2, 24 h; for Solubility (pH 4.5): McIlvaine buffer pH 4.5, 24 h; for Solubility (pH 6.8): McIlvaine buffer pH 6.8, 24 h.

In general, EC50 refers to the concentration that produces a half-maximal response. A low value points to higher potency in that assay. Compound `Cc1cccc(-c2cccc(-n3ncc(C(=O)O)c3OC(C)C)n2)c1OCc1ccc2c(c1)CCN([C@@H]1CCOC1)C2` came in with an EC50 in data set [1] of 0.034 µM. Further, in data set [2], the “HLM (% Qh)” value was <24 % Qh. Besides, in data set [3], the “Solubility (pH 2.2)” value is 88 μg/mL, the “Solubility (pH 4.5)” value was 33 μg/mL and the “Solubility (pH 6.8)” value came out at 36 μg/mL.
For `Cc1cccc(-c2cccc(-n3ncc(C(=O)O)c3OC(C)C)n2)c1OCc1ccc2c(c1C)CCN(C1CCOC1)C2` (stereo not drawn), in that order: 0.022 µM, <24 % Qh, 87 μg/mL, 69 μg/mL and 79 μg/mL.
`Cc1cccc(-c2cccc(-n3ncc(C(=O)O)c3OC(C)C)n2)c1OCc1ccc2c(c1C)CCN(C1CCCOC1)C2` (stereo not drawn) came in with an EC50 in data set [1] of 0.01 µM. Besides, the “HLM (% Qh)” value in data set [2] was <24 % Qh. In data set [3], the “Solubility (pH 2.2)” value is given as 100 μg/mL, the “Solubility (pH 4.5)” value is 82 μg/mL and the “Solubility (pH 6.8)” value came to 86 μg/mL.
Turning to `COc1c(C(=O)O)cnn1-c1cccc(-c2cccc(C)c2OCc2ccc3c(c2C)CCN([C@H]2CCOC2)CC3)n1`, in data set [1], the EC50 stood at 0.0074 µM. The “HLM (% Qh)” value in data set [2] is recorded as <24 % Qh.
For `CCOc1c(C(=O)O)cnn1-c1cccc(-c2cccc(C)c2OCc2cc(C)c3c(c2C)CCN(C2CCOCC2)C3)n1`, in that order: 0.011 µM and <24 % Qh.
For `CCOc1c(C(=O)O)cnn1-c1cccc(-c2cccc(C)c2OCc2ccc3c(c2)CCN(C2CCOCC2)CC3)n1`, in that order: 0.013 µM and <24 % Qh.
